Tested on: opiate receptors mu, delta and kappa
Assay type: binding
Details: in vitro

SMILES: CN1CC[C@]23c4c5ccc(O)c4O[C@H]2[C@@H](O)C=C[C@H]3[C@H]1C5 [Morphine]
- receptor binding affinity to mu, delta and kappa (in words): showing an affinity to the three receptors studied, with a non-negligible intensity

Reference: patent US5266599A, “Use of (+)-1-[(3,4,5-trimethoxy)-benzyloxymethyl]-1-phenyl-N,N-dimethyl-n-propy lamine to increase gastric discharge in a subject” (priority 1989, dated 1993)
